Data from ChEMBL document CHEMBL1143879, “Identification of novel series of human CCR1 antagonists” (Bioorg Med Chem Lett, 2008).

Test: Selectivity for human CCR1 receptor over CCR4 receptor

- Selectivity ratio: > 100
Compound: O=S(=O)(NCCCN1CCC(O)(c2ccc(Cl)cc2)CC1)c1ccccc1-c1ccccc1
